Test results: PubChem BioAssay AID588538 (Sanford-Burnham Center for Chemical Genomics, 2011)
The list shows a part of the results, in another mix than the full data. Active and inactive are the calls of the source. No rule for the calls is given here.

Experiment: fluorescence interference of Apaf-1 inhibitor hits, dose response, artefact control for Apaf-1 inhibitor project (AID 588538)
Settings: fluorescence interference counterscreen, Apaf-1 assay format

CC1=C2N=C(C=C3N=C(C(C)=C4[N-][C@@](C)([C@@H]5N=C1[C@](C)(CCC(=O)NC[C@@H](C)OP(=O)([O-])O[C@H]1[C@@H](O)[C@@H](n6cnc7cc(C)c(C)cc76)O[C@@H]1CO)[C@H]5CC(N)=O)[C@@](C)(CC(N)=O)[C@@H]4CCC(N)=O)[C@@](C)(CC(N)=O)[C@@H]3CCC(N)=O)C(C)(C)[C@@H]2CCC(N)=O.[C-]#N.[Co+3]
IC50: inactive: > 100 µM
